Test results published in ChEMBL document CHEMBL4422692, “Plant-Based Modulators of Endocannabinoid Signaling” (J Nat Prod, 2019).

The chains behind the UniProt entries cited, without tags or fusion partners.
UniProt P97612, whole entry: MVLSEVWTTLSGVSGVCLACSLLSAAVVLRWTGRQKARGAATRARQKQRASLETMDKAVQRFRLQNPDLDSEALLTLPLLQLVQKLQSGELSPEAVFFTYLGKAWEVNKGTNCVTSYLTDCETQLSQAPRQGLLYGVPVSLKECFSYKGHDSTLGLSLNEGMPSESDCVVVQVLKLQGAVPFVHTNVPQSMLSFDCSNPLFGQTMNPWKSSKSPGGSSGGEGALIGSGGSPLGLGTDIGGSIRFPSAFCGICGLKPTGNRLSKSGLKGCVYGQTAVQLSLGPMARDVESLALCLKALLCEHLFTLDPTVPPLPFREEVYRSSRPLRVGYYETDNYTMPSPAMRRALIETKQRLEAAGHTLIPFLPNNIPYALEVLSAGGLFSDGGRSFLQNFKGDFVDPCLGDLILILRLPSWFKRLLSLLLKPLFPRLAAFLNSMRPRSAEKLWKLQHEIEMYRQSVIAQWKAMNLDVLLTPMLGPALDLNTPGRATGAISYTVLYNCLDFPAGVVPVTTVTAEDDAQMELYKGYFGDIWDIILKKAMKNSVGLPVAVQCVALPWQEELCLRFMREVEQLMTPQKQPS

Biological target: Fatty-acid amide hydrolase 1 (Rattus norvegicus, UniProt P97612)
Assay: Inhibition of FAAH in rat brain membranes using [14C]-AEA as substrate measured after 30 mins by scintillation counting method
Type: cell membranes

C=C(C)[C@@H]1CCC(C)=C[C@H]1c1c(O)cc(CCCCC)cc1O [CANNABIDIOL]
IC50: 53.2 µM
